Among the data in patent US9416127B2, “Triazole carboxamides and uses thereof” (Hoffmann-La Roche Inc., priority 2012, dated 2016) are Ki values, retold here.

Protein sequences, listed by entry. Tags and fused reporters are not part of them.
UniProt Q923Y8, whole entry: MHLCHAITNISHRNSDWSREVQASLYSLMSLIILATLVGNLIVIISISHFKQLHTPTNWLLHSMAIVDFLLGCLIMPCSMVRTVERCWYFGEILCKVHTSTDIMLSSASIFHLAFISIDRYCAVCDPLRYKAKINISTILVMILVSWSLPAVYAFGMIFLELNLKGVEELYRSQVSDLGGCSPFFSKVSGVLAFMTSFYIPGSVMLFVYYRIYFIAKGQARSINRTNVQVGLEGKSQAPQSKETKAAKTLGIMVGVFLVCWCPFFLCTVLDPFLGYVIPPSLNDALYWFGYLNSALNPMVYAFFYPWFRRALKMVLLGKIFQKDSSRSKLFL

The assay addresses mouse TAAR1 (Mus musculus (Mouse), UniProt Q923Y8). Nature of the assay: Radioligand binding assay on mouse TAAR1. The note with it: mouse TAAR1, HEK-293 membranes; first value of mouse/rat cell. The method, then:
Construction of TAAR Expression Plasmids and Stably Transfected Cell Lines
For the construction of expression plasmids the coding sequences of human, rat and mouse TAAR 1 were amplified from genomic DNA essentially as described by Lindemann et al.. The Expand High Fidelity PCR System (Roche Diagnostics) was used with 1.5 mM Mg^2+ and purified PCR products were cloned into pCR2.1-TOPO cloning vector (Invitrogen) following the instructions of the manufacturer. PCR products were subcloned into the pIRESneo2 vector (BD Clontech, Palo Alto, Calif.), and expression vectors were sequence verified before introduction in cell lines.
HEK293 cells (ATCC # CRL-1573) were cultured essentially as described by Lindemann et al. (2005). […]
HEK-293 cells stably expressing mouse TAAR1 were maintained at 37° C. and 5% CO2 in DMEM high glucose medium, containing fetal calf serum (10%, heat inactivated for 30 min at 56° C.), penicillin/streptomycin (1%), and 375 μg/ml geneticin (Gibco). […] With each new membrane batch the dissociation constant (Kd) was determined via a saturation curve. […] After addition of 45 μl of Microscint 40 (PerkinElmer) the Unifilter-96 plate was sealed and after 1 hr the ratioactivity counted using a TopCount Microplate Scintillation Counter (Packard Instrument Company).

One may read the Ki as a dissociation constant, usually derived from enzyme kinetics or from competition with a known ligand.

For the compound `O=C(Nc1ccc(C2CCCNC2)cc1)c1cnn(-c2ccccc2)n1` (racemic) [Example 35, (RS)-2-Phenyl-N-(4-(piperidin-3-yl)phenyl)-2H-1,2,3-triazole-4-carboxamide], affinity was put at a Ki of 0.0019 µM. In other words, the single-digit nanomolar range.
